# Results taken from US20240327469A1, “FUNCTIONALISED POLYPEPTIDES, NANOPARTICLES AND USES THEREOF” (priority 2021, published 2024).
# Test system: BT474 cells
# Assay: In vitro cytotoxicity (alamarBlue)
# Assay type: cell-based, human
# Conditions: BT474, 48 h
# Procedure: In Vitro Cytotoxicity Assays BT474 cells (7000 cells/well) were seeded in 96-well black plates and incubated overnight for cell adherence. Then, 100 μL of normal or pH 6.5 medium with different concentrations of mPEG-PLL/CDA, PLL22-Gua and Gua-NPs were replaced into the plates. After 48 h of incubation, the medium was removed, and alamarBlue cell viability reagent was added. After another 4 h of incubation in 37° C., the color change and increased fluorescence can be detected using a microplate reader (excitation: 530-560 nm; emission: 590 nm). And the cell viability was calculated according to the following equation: Isample and Icontrol represent the fluorescent intensity of treated cells and untreated cell, respectively. Ibackground represents the fluorescent intensity of the well without cells. The data are presented as the average±SD (n=6). In addition, the cellular cytotoxicity of mPEG-PLL/CDA, and PLL22-Gua were also validated by alamarBlue assay in similar method.
substance,measurement,value
methoxy poly(ethylene glycol)-b-poly(L-lysine) [mPEG-b-PLL],cytotoxicity (in words),showed cytotoxicity
